These results are taken from PubChem BioAssay AID2696 (Johns Hopkins Ion Channel Center, 2010).

The chains behind the UniProt entries cited, without tags or fusion partners.
UniProt Q61143, whole entry: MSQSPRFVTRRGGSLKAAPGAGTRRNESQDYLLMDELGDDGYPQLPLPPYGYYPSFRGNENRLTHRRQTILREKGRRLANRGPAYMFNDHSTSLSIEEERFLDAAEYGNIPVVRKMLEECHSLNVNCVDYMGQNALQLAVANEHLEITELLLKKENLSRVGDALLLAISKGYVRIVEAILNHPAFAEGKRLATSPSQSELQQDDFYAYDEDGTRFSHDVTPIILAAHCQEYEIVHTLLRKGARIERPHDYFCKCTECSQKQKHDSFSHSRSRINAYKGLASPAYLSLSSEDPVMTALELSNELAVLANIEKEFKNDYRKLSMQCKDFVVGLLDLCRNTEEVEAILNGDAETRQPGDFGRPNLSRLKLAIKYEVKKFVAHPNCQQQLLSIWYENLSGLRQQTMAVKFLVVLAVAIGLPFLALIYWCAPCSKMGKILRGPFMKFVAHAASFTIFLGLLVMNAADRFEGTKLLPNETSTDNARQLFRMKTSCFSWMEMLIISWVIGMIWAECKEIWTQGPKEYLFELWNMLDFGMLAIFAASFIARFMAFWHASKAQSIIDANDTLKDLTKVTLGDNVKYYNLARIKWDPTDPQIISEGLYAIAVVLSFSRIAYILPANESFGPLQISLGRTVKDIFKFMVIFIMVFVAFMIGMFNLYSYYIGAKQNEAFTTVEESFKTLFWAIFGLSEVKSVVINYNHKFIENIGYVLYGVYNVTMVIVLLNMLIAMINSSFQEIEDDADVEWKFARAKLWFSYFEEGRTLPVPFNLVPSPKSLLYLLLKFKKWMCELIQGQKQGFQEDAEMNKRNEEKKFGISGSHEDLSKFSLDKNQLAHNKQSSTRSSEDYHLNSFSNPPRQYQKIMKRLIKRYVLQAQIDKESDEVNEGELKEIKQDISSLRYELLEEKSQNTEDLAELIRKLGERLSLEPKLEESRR

This test has as its target Short transient receptor potential channel 6 (Mus musculus) (UniProt Q61143). In words: TRPC6 inhibitor potency, dose response, cell-based, mouse TRPC6, HEK293, membrane potential (AID 2696). To be noted: TRPC6-expressing cells, fluorescence ratio calcium influx.

The structures appear in SMILES notation.

The IC50 is the point on the concentration scale where inhibition reaches its midpoint. In the case of `CCN(CC)CCCOC(=O)C(O)(c1ccccc1)C1CCCCC1` (stereo not given), the IC50 is 80 nM.

`CCOC(=O)c1ccc(NP(C)(=O)Oc2ccc(Cl)cc2)cc1` (stereo not given): the IC50 was 79400 nM.

Take `O=C(OCCCN1CCCC1)C(O)(c1ccccc1)C1CCCCC1` (stereo not given): the IC50 was 200 nM.

In the case of `CN(C)CCOC(=O)C(O)(c1ccccc1)C1CCCC1` (stereo not given), the IC50 was 450 nM.

For `CN(C)CCOC(=O)C(O)(c1ccccc1)C1CCCCC1` (stereo not given), the IC50 is 1000 nM.
